{"sequences": {"note": "The chains behind the UniProt entries cited, without tags or fusion partners.", "UniProt P27338, whole entry": "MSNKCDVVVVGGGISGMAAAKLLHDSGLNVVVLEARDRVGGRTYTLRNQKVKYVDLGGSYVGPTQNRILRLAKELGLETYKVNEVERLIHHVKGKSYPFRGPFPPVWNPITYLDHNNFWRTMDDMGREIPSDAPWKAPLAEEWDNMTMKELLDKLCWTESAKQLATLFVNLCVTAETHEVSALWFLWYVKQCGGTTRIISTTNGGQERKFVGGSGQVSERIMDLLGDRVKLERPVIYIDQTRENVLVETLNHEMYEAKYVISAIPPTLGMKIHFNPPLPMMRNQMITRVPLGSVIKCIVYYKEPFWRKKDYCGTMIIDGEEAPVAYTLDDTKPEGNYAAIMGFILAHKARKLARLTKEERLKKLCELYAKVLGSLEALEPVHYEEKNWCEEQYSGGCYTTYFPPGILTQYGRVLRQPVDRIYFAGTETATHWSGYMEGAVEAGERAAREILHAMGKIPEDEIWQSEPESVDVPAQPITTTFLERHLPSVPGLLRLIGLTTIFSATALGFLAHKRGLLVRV"}, "source": "paper PMC9504029", "about": "“Identification and Characterization of Novel Small-Molecule SMOX Inhibitors” (Medical Sciences, 2022)", "target": "T1, recombinant human MAO-B (Homo sapiens, UniProt P27338)", "T1 construct": "purchased Sigma-Aldrich M7441-1VL", "assay": "MAO-Glo assay, MAO-B", "type": "biochemical", "protocol": "To determine selectivity, the compounds were tested for activity against the related FAD-dependent amine oxidase enzymes LSD1, MAO-A, and MAO-B. LSD1 activity was assessed using a commercially available assay kit (#700120, Cayman Chemical, Ann Arbor, MI, USA), in which the enzyme activity was determined by the horseradish peroxidase-catalyzed oxidation of 10-acetyl-3,7-dihydroxyphenoxazine to the highly fluorescent resorufin in response to H2O2 production. Monoamine oxidase activity was determined using recombinant human MAO-A and MAO-B (M7316-1VL & M7441-1VL, Sigma-Aldrich, St. Louis, MO, USA) and a commercially available assay kit (#V1401, MAO-Glo, Promega, Madison, WI, USA), which utilizes the MAO-catalyzed oxidation of a luciferin derivative coupled with esterase activity to produce luminescence. Fluorescent and luminescent readout was obtained using a SpectraMax M5 plate reader (Molecular Devices) equipped with SOFTmax PRO 7.0.3 software. […] Values were reported as mean % inhibition ± SD of triplicate assay wells normalized to background activity and compared to the vehicle control."}
{"smiles": "N[C@@H]1C[C@H]1c1ccccc1", "note": "(racemic) [TCP, Tranylcypromine, reference compound]", "values": [{"measurement": "% Inhibition at 20 μM ± SD, MAO-B", "result": "88.2 ± 7.9", "unit": "%"}]}
